Laboratory results taken from ChEMBL document CHEMBL1133815, “Anti-Trypanosoma activity of some natural stilbenoids and synthetic related heterocyclic compounds” (Bioorg Med Chem Lett, 2001).

Experiment: Ratio of inhibitory concentration to that of reference drug was determined
Type: functional

With `CN(C)c1ccc(C(=C2C=CC(=[N+](C)C)C=C2)c2ccc(N(C)C)cc2)cc1.[Cl-]` [GENTIAN VIOLET] the Ratio was 1.
